Binding of CDR-mutated scFvs to a peptide of the spike HR2 region

The measurements come from Engelhart et al. 2022 (doi:10.1038/s41597-022-01779-4) through the FLAb antibody collection.

Target peptide (SARS-CoV-2 spike, HR2 region): PDVDLGDISGINAS

Ab-14 is the parent antibody, in scFv form: VH, then a 15-residue (Gly4Ser)3 linker, then VL. The light chain is unchanged in all variants.
VH: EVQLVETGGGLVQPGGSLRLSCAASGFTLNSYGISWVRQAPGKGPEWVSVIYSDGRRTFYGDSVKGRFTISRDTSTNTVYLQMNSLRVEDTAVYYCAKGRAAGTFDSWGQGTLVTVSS
VL: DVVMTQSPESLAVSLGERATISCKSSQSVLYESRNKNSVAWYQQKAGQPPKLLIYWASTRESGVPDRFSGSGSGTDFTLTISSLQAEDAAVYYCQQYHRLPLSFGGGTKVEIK

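The starting antibody came from a phage panning campaign against this peptide. Variants in AAYL49 differ from the parent at up to three CDR positions; double and triple changes were sampled at random. AlphaSeq pools MATa yeast showing the antibodies with MATalpha yeast showing the peptide. Binding brings cells together so that they mate, and sequencing counts the barcode pairs among the diploids. Scores were corrected for input abundance and mapped to Kd with protein pairs of known affinity run in the same pool. Mating was done three times.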

The parent's heavy chain CDRs are GFTLNSYGIS, VIYSDGRRTFYGDSVK, GRAAGTFDS; each variant's own CDRs replace them letter for letter. This list gathers variants with a substitution at D54 (VH, numbered from residue 1). The read-out is the apparent dissociation constant on a log10 scale (nM): the lower, the stronger. A mean of the replicates is given; it leaves out those without a signal. A pair that was not seen in that replicate is written "ND"; this usually means weak binding, but a binder can also be missed.

CDR-H1,CDR-H2,CDR-H3,"log10 Kd, replicates","mean, log10 nM"
GFTLNSYGIS,VINSFGRRTFYGDSVK,GRAAGTFDS,ND ND ND,ND
GFTLNYYGIS,VIYSRGRRTFWGDSVK,GRAAGTFDS,ND ND ND,ND
GFTLNSYGSS,VIYSIGRRTFYGDSVK,GRAAPTFDS,3.26 3.92 4.95,4.04
GFTLNSYGIS,VIYSTGRRTGYGDSVQ,GRAAGTFDS,ND 4.29 4.98,4.64
GFTLNSYGIS,VIYSHGRRTFYGDSVK,GRAAGTFDS,ND ND ND,ND
RFTLNSYGIS,VIYSPGRRTFYGDSVK,GRAAGTFDK,ND ND ND,ND
GFTLNSYGIS,VIYSRGRRTFYFDSVK,GAAAGTFDS,ND ND ND,ND
GFTLNSYGIS,VIYSGGRRTFYRDSAK,GRAAGTFDS,ND ND ND,ND
GFTLNSYGIS,VIYSNWRRTFYGDSVK,GRAAGTFDS,ND ND ND,ND
GFTLNSYGIS,VIYSLGRRTFKGCSVK,GRAAGTFDS,ND ND ND,ND
GFTLNSYGIS,VQYSEGRRTFYGDSVK,GRADGTFDS,5.24 4.24 4.92,4.80
GFTLNSYDIS,VIYSSGRRTFYGDSVK,GRAAGTFDS,ND 3.31 ND,3.31
GFTLNSYGIS,VIYSWGRRTFYGFSVK,GRAAGTSDS,ND ND 5.91,5.91
GFTLNSYGIS,VIYMVGRTTFYGDSVK,GRAAGTFDS,ND ND 2.74,2.74
GFTLNSYGIS,VIYSNGRRTFYGDSDK,ARAAGTFDS,ND ND ND,ND
GFTLNSYGIS,VIYSQGCRTFYGPSVK,GRAAGTFDS,ND 3.21 ND,3.21
GFTLNSYGIS,VIYSWGRRTFYGDSLK,GRAAGTFDS,ND ND ND,ND
GFTLNSYGIL,VIYSIGRRTFYGDSVK,GRAAATFDS,ND ND ND,ND
GFTLNSYGIS,VIYSRGRRTFCGDSVK,GRAAITFDS,3.86 ND ND,3.86
GFTLNSYGIS,VIYSYGRRTFYGDSVK,GRAAGWFDS,ND 2.51 ND,2.51
GFTLNSYGIS,VIYGRGRRTNYGDSVK,GRAAGTFDS,4.64 5.06 ND,4.85
GFTLPSYGIS,VIYSRGRRTFYGDSVK,GRAFGTFDS,4.34 2.92 4.63,3.96
GFTLNSYGGS,VIYSHGRRTFYGDSVK,GRSAGTFDS,ND 3.31 ND,3.31
GFTLNSYGIS,VIYSKGRRTFYGDSWK,GRAAGTFDR,ND ND ND,ND
GFTLNSYGIN,VIYSVGRRTFYGDSVM,GRAAGTFDS,ND ND ND,ND
GFTLNSYGIS,VSYSEGRRTFYGDLVK,GRAAGTFDS,ND ND ND,ND
GFTLNSPGIS,VIYSFGRRTFYGDSVK,GRAAGTFDS,ND ND ND,ND
KFTLNSYGIS,VIYSHGRRTFMGDSVK,GRAAGTFDS,5.70 ND ND,5.70
GFTLNSYGIS,VIYSGGRRTFYGDEVK,GRAAGDFDS,ND ND ND,ND
GFTLNSYEIS,VIYSHGRRTFYGDNVK,GRAAGTFDS,ND ND ND,ND

Extract of 4 entries:

CDR-H1,CDR-H2,CDR-H3,"log10 Kd, replicates","mean, log10 nM"
GFTLPSYGIS,VIYSRGRRTFYGDSVK,GRAFGTFDS,4.34 2.92 4.63,3.96
GFTLNSYDIS,VIYSSGRRTFYGDSVK,GRAAGTFDS,ND 3.31 ND,3.31
GFTLNSYGIS,VIYSHGRRTFYGDSVK,GRAAGTFDS,ND ND ND,ND
GFTLNSYGGS,VIYSHGRRTFYGDSVK,GRSAGTFDS,ND 3.31 ND,3.31

Parent in this assay: reference entry 0.65, copy in this library 4.11 (one replicate of three). Three control strains display no target. For library AAYL49, 15% of the pairings with them gave a signal, with a median of 4.06 and one signal in twenty below 2.83, so weak values seen in few replicates may be background.